Test results as given in PubChem BioAssay AID1347056 (Sanford-Burnham Center for Chemical Genomics, 2019).
The list shows a part of the results, in another mix than the full data. Some of these compounds have results that are not shown, active ones among them. Activity calls are given as the source filed them.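 Rule for the calls: active = compounds whose plate-normalised and pattern-corrected inhibition of the luciferase reporter signal at the single screening dose is 50% or more; inactive = the rest.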

Experiment: inhibitors of TROY-driven NF-kB signaling, primary screen, Q293 LMP1-TROYcd cells, NF-kB luciferase, uHTS (AID 1347056)
Conditions: Q293 LMP1-TROYcd NF-kB luciferase reporter, 4 h; at 10 µM; active compounds read high
For `O=C(NCC1(N2CCCCC2)CCCCC1)c1cccc(Cl)c1`, the inhibition was inactive: -3.93%.
With `COc1cccc(C(=O)NCC2(N3CCCCC3)CCCCC2)c1` the inhibition was inactive: -2.22%.
For `COc1ccc(Cl)cc1C(=O)NCC1(N(C)C)CCCCC1`, the inhibition was inactive: -22%.
With `COc1cc(C(=O)NCC2(N(C)C)CCCCC2)c([N+](=O)[O-])cc1OC` the inhibition was inactive: -5.91%.
In the case of `CN(C)C1(CNC(=O)c2ccc(Br)cc2)CCCCC1`, the inhibition is reported as inactive: 8.46%.
With `CC(C)Oc1ccc(C(=O)NCC2(N(C)C)CCCCC2)cc1` the inhibition was inactive: -29.4%.
In the case of `O=C(OCCN1CCCC1)C(O)(c1ccccc1)c1ccccc1`, the inhibition is reported as inactive: 14.4%.
For `CN(C)c1cccc(C(=O)NCC2(N(C)C)CCCCC2)c1`, the inhibition was inactive: -0.9%.
In the case of `C=C(C)C#CC(O)(C(=O)OC1CCN(C)CC1)c1ccccc1` (stereo unspecified), the inhibition is reported as inactive: -4.58%.
In the case of `COc1ccc(Br)c(C(=O)NCC2(N3CCCCC3)CCCCC2)c1`, the inhibition is reported as inactive: -3.54%.
In the case of `O=C(OC1CN2CCC1CC2)C(CO)(c1ccccc1)c1ccccc1` (stereo unspecified), the inhibition is reported as inactive: -9.23%.
For `Cc1ccc(C(=O)NCC2(N3CCCCC3)CCCCC2)cc1`, the inhibition was inactive: 8.79%.
In the case of `CCN(CC)CC(C)C(C)OC(=O)C(O)(c1ccccc1)c1ccccc1` (stereo unspecified), the inhibition is reported as inactive: 6.91%.
For `COc1cc(SC)ccc1C(=O)NCC1(N(C)C)CCCCC1`, the inhibition was inactive: 0.42%.
In the case of `CC(C)N1C(=O)CC2(CCN(CCOC(=O)C(O)(c3ccccc3)c3ccccc3)CC2)C1=O`, the inhibition is reported as inactive: 19.4%.
In the case of `CN1[C@@H]2CC[C@H]1CC(OC(=O)C(O)(c1ccccc1)c1ccccc1)C2` (stereo partly specified), the inhibition is reported as inactive: -1.63%.
For `O=C(NCC1(N2CCCCC2)CCCCC1)c1cc([N+](=O)[O-])ccc1Cl`, the inhibition was inactive: 10.7%.
For `COc1ccc(C(=O)NCC2(N(C)C)CCCCC2)cc1`, the inhibition was inactive: -28.5%.
For `Cc1cc(C(=O)NCC2(N3CCCCC3)CCCCC2)ccc1[N+](=O)[O-]`, the inhibition was inactive: 7.4%.
With `CCN1CCCC(OC(=O)C2(O)c3ccccc3C=Cc3ccccc32)C1` (stereo unspecified) the inhibition was inactive: 6.15%.
For `O=C(NCC1(N2CCCCC2)CCCCC1)c1cccc(Br)c1`, the inhibition was inactive: -8.51%.
With `C=CCN1CCN(CCOC(=O)C(O)(c2ccccc2)c2ccccc2)CC1` the inhibition was inactive: -13.8%.
In the case of `O=C(NCC1(N2CCCCC2)CCCCC1)c1cc(F)c(F)cc1Cl`, the inhibition is reported as inactive: -8.13%.
For `Cc1ccccc1C(=O)NCC1(N2CCCCC2)CCCCC1`, the inhibition was inactive: 16.9%.
With `CN(C)C1CCCC1OC(=O)C(O)(c1ccccc1)c1ccccc1` (stereo unspecified) the inhibition was inactive: 7.33%.
With `CN(C)c1ccc(C(=O)NCC2(N(C)C)CCCCC2)cc1` the inhibition was inactive: -37.7%.
